Protein sequences, listed by entry. Tags and fused reporters are not part of them. Residues count along the entry.
UniProt P43354, whole entry: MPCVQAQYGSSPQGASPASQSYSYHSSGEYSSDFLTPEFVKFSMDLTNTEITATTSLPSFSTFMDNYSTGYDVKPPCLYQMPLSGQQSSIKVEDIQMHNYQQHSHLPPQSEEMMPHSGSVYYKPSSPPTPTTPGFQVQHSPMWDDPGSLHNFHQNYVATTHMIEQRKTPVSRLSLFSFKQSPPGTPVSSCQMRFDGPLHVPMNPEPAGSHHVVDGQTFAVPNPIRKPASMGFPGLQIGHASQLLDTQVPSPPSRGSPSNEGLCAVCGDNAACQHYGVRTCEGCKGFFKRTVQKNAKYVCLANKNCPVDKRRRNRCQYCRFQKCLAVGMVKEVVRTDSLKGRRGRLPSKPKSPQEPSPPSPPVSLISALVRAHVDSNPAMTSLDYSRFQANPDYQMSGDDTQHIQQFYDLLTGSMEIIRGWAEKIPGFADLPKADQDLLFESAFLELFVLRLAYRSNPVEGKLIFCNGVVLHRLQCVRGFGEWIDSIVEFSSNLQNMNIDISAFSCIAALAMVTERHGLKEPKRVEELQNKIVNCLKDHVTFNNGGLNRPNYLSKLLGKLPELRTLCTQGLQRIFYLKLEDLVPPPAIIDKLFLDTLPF
UniProt P43354, 360-595 limits assumed: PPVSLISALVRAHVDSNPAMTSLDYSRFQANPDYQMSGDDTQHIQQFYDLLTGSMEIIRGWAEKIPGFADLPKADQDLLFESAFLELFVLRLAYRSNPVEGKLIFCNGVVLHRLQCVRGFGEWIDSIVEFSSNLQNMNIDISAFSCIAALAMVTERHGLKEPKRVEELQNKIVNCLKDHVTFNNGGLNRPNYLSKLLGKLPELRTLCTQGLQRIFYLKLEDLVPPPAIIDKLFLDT

According to article PMC10184128 (Journal of Medicinal Chemistry, 2023):

Tests used:
[1] = biological target: full-length human Nurr1 (NBRE) (Homo sapiens, UniProt P43354); conditions: all compounds tested at 10 μM, n = 3
[2] = tested on: constitutively active nuclear receptors; conditions: 10 μM
human Nurr1 = human Nurr1 (Homo sapiens, UniProt P43354); conditions: for max. activation (Nurr1): Gal4 hybrid reporter gene assay, mean ± S.E.M., n ≥ 3; for activation of Gal4-Nurr1 (hybrid assay): all compounds tested at 10 μM, n = 3
[3] = tested on: vesicular amino acid transporter 2 (VMAT2)
COS-7 cells = conditions: 0.1-10 μM, 24 h
[4] = tested on: tyrosine hydroxylase (TH)

SMILES	activation of full-length Nurr1 (NBRE) [1]	activity on constitutively active nuclear receptors outside the NR4A family [2]	effect on activity of ligand-independent transcriptional inducer Gal4-VP16 (Gal4-VP16)	max. activation (Nurr1) (human Nurr1)	activation of Gal4-Nurr1 (hybrid assay) (human Nurr1)	VMAT2 mRNA expression [3]	cytotoxic effects (COS-7 cells)	TH mRNA expression [4]
COc1cccc(-c2ccc(NC(=O)C3=C(C(=O)O)CCC3)c(F)c2)c1 [compound 1, vidofludimus]	activated	selective	did not affect the activity	0.4±0.2 μM (3.1±0.4-fold)	activated	–	–	–
[2H]C([2H])([2H])Oc1cccc(-c2ccc(NC(=O)C3=C(C(=O)O)CCC3)c(F)c2)c1 [compound 2]	activated	–	–	0.079±0.001 μM (2.6±0.1-fold)	activated	–	–	–
C#CCOc1cccc(-c2ccc(NC(=O)C3=C(C(=O)O)CCC3)c(F)c2)c1 [compound 29, 2-[(3-Fluoro-3′-prop-2-yn-1-yloxy[1,1′-biphenyl]-4-yl)carbamoyl]cyclopent-1-ene-1-carboxylic acid]	–	selective	–	–	–	induced mRNA expression	no cytotoxic effects	induced mRNA expression
